Assay: Effect of co-administration of triphenylethylenes on clopidogrel metabolism in vivo (CLP*-acetamide by LC-MS)
Parameters: species or system Sprague-Dawley rats
Settings: oral gavage, rats
Procedure: Adult male Sprague-Dawley rats are dosed with various triphenylethylenes at different doses from 0.1 mg/kg to 10 mg/kg (spanning the likely doses such compounds would be used in man), or with vehicle only, and simultaneously dosed with 10 mg/kg clopidogrel, both by oral gavage. Blood samples are drawn through an in-dwelling jugular catheter at 0.5, 1, 2, 4, 8 and 24 hrs post-dose, and serum is prepared by conventional methods well known in the art.
The level of CLP*, the active metabolite of clopidogrel is then determined in each blood sample by LC-MS by collecting the blood samples in tubes containing the thiol alkylating agent iodeoacetamide. Iodoacetamide reacts with CLP* to generate a stable product which can be detected by LC-MS using standard methodology well known in the art. An authentic sample of the acetamide adduct of CLP* is used to quantify the level of CLP*-acetamide in the sample. […] The concentration of CLP*-acetamide adduct can therefore be assumed to be proportional to the concentration of CLP*. The pharmacokinetics of CLP*-acetamide are then compared under the different conditions, using standard pharmacokinetics models implemented with WinNonLin.

CN(C)CCOc1ccc(/C(=C(/CCCl)c2ccccc2)c2ccccc2)cc1 [Toremifene]
% inhibition of CLP*-acetamide Cmax compared to vehicle control (analog 0.1 mg/kg with 10 mg/kg clopidogrel): 11% | % inhibition of CLP*-acetamide Cmax compared to vehicle control (analog 1 mg/kg with 10 mg/kg clopidogrel): 48% | % inhibition of CLP*-acetamide Cmax compared to vehicle control (analog 10 mg/kg with 10 mg/kg clopidogrel): 77%

Reference: patent US20110136858A1, “Preferred Combination Therapy” (priority 2009, published 2011)
